For two compounds, activity change results are on record in PubChem BioAssay AID651724 (National Center for Advancing Translational Sciences (NCATS), 2012).

This is a selection; strong and weak results do not stand in their true shares. Calls of active or inactive are those of the source. Rule as the data show it: active = activity change below about -65%; inconclusive = mostly about -30% to -63%; inactive = weaker than that.
% is scaled to controls: 0 for no effect and ±100 for the full control effect.

For this test, the system named is CtBP / adenovirus E1A interaction (AlphaScreen). Kind of test: qHTS Assay for Inhibitors of the CtBP/E1A Interaction. Particulars: AlphaScreen GST-E1A/His-CtBP binding, 1536-well; stronger effect = lower value. From the text:
Carboxyl-terminal binding protein (CtBP) is a co-repressor for many transcription factors. […] Our studies have shown that CtBP is overexpressed in multiple human cancers, including lung, breast, and head and neck cancers. In particular, it is over-expressed in 50% of primary lung cancer and 90% of metastatic lesions. CtBP suppresses epithelial-specific genes as well as genes critical for apoptosis, providing the underlying molecular mechanism for its role in tumorigenesis. […] Based on the above data, we hypothesize that 1) CtBP suppresses the pro-apoptotic and epithelial genes, therefore overexpressed CtBP in human cancer cells increases EMT and cancer survival; 2) decreasing CtBP's function represents a targeted therapy for lung cancer and potentially multiple cancer types. As a co-repressor, CtBP binds to E1A and other transcription factors through a conserved peptide motif to carry out its action. Inhibiting this interaction using small molecules can potentially serve as effective cancer therapeutics.
To this end, we have developed a homogenous AlphaScreen assay targeting the CtBP/E1A interaction. […]
The first step of the 5uL AlphaScreen assay is to dispense assay buffer (50 mM Tris, pH 8.0, 300 mM NaCl, 0.05% BSA, 0.02% Tween 20, 1 mM TCEP) into a Greiner 1536 white solid bottom microtiter plate (789175-F). […] The plate is read using a Perkin Elmer Envision using an AlphaScreen protocol.
On the technique in general: In qHTS, concentration-response curves come from the screen itself.
Consider `CCC(=O)N(c1ccccc1)C1(COC)CCN(CCc2cccs2)CC1`, for which the activity change was inactive: -3.2%. For the compound `CCC(=O)N(c1ccccc1)C1(COC)CCN(CCn2nnn(CC)c2=O)CC1`, the activity change is inactive: 4.72%.
